# Test results as given in patent US20050266515A1, “Glyceraldehyde 3-phosphate dehydrogenase-S (GAPDHS), a glycolytic anzyme expressed only in male germ cells, is a target for male contraception” (The University of North Carolina at Chapel Hill, priority 2002, published 2005).
# System: truncated form of human GAPDHS
# Test: Inhibition of dehydrogenase activity of recombinant truncated GAPDHS (NADH accumulation at 340 nm);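 note: recombinant enzyme (1 µg) in glycine–phosphate–EDTA buffer pH 8.9, inhibitors tested from 1 µM to 3 mM, activity relative to DMSO-only controls taken as 100%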
# Type: biochemical
# Conditions: comparison of IC50 values of Tables 7, 9 and 11
# Description: In subsequent studies to test inhibitors identified in computer docking studies, recombinant mouse Gapdh and the truncated form of Gapdhs (tGapdhs, amino acids 106-438) were expressed in DS112 gapA-deficient E. coli strain K-12 (available from the Yale University E. coli Genetics Stock Center, New Haven, Conn., United States of America). The truncated Gapdhs lacks the proline-rich N-terminus, but contains all the amino acids required for enzyme activity. The recombinant proteins were purified and activities were determined with a standard enzyme assay (Schmalhausen et al., 1997). Using this assay, the dehydrogenase activity of Gapdh and tGapdhs was monitored at 340 nm by measuring the accumulation of NADH.
# The reaction mixture (200 μl) contained 50 mM glycine, 50 mM potassium phosphate, 5 mM EDTA (pH 8.9), 1 μg of recombinant enzyme (Gapdh or tGapdhs), 0.5 mM NAD, and 0.5 mM glyceraldehyde-3-phosphate. Activities of Gapdh and tGapdh were compared in the presence of various concentrations of inhibitors. Compounds identified as potential inhibitors in modeling studies as described herein were obtained from Ryan Scientific (Mt. Pleasant, S.C., United States of America). Stocks for each compound were prepared by dissolving 5 mg in 50 μl of DMSO. These stocks were divided into 10 μl aliquots and frozen at −20° C. […]
substance,measurement,value
4-Amino-N-(4-methoxy-phenyl)-3-nitro-benzenesulfonamide-cyclohexyl-urea [Compound T0506_9350],selective inhibition: Gapdhs compared to Gapdh,greater inhibition of Gapdhs than Gapdh
